Experimental data: patent publication US8614290B2, “Cancer imaging and treatment” (Technische Universitat Munchen, priority 2007, dated 2013)

Sequences of proteins named here, by UniProt entry; tags and fusion partners are left off.
UniProt P61073, whole entry, looked up: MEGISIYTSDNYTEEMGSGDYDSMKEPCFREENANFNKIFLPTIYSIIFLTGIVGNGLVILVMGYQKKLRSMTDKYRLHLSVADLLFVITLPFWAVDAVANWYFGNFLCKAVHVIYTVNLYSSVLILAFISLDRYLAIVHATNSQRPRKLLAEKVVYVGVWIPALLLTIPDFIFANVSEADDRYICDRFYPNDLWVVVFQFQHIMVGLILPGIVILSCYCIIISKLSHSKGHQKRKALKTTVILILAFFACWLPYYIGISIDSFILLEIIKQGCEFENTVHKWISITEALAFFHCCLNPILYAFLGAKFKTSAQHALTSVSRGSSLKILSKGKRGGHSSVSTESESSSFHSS

How the values were obtained:
CXCR4 [1] = target: T1, CXCR4 (Homo sapiens, UniProt P61073); experiment: ^125I-CPCR4 | CMS5/CXCR4; set-up: Jurkat cells that endogenously express the CXCR4 receptor; endogenous in cells; host or cells: Jurkat cells
CXCR4 [2] = target: T1, CXCR4; experiment: Competitive receptor binding assay on Jurkat cells with 125I-CPCR4 as tracer; set-up: Jurkat cells that endogenously express the CXCR4 receptor; endogenous in cells; host or cells: Jurkat cells
Method: For receptor binding assays cells were resuspended in PBS/0.2% BSA. A total of 200 μl of the suspension containing 400,000 Jurkat cells were incubated with 25 μl of the tracer solution (containing 3.1 kBq, approx. 0.1 nM) and 25 μl of the diluent or the competitor at different concentrations. […] After shaking for 2 h at room temperature, the incubation was terminated by centrifugation at 1300 rpm for 5 min. Cell pellets were washed once with cold PBS followed by a second centrifugation step. Cell bound radioactivity was determined by using a gamma counter. Experiments were repeated 2-3 times in triplicates. IC50 values of the compounds were calculated by nonlinear regression using GraphPad Prism (GraphPad Prism 4.0 Software, Inc., San Diego, Calif., USA). Each data point is the average of three determinations.

Work on N=C(N)NCCC[C@@H]1NC(=O)[C@H](CCCNC(=N)N)NC(=O)[C@@H](Cc2ccc(O)cc2)NC(=O)CNC(=O)[C@H](Cc2ccc3ccccc3c2)NC1=O [CPCR4, cyclo[D-Tyr-Arg-Arg-Nal-Gly]] yielded an IC50 (CXCR4 [1]) of 6.8 nM.

Work on N=C(N)NCCC[C@@H]1NC(=O)[C@H](CCCNC(=O)CCCC(=O)NCCC[C@@H]2NC(=O)[C@@H](Cc3ccc(O)cc3)NC(=O)CNC(=O)[C@H](Cc3ccc4ccccc4c3)NC(=O)[C@H](CCCNC(=N)N)NC2=O)NC(=O)[C@@H](Cc2ccc(O)cc2)NC(=O)CNC(=O)[C@H](Cc2ccc3ccccc3c2)NC1=O [Code A21, glutaric acid-(cyclo[D-Tyr-Orn-Arg-2-Nal-Gly])2] yielded an IC50 (CXCR4 [2]) of 4.3 ± 0.3 nM.

For N=C(N)NCCC[C@@H]1NC(=O)[C@H](CCCNC(N)=O)NC(=O)[C@@H](Cc2ccc(O)cc2)NC(=O)CNC(=O)[C@H](Cc2ccc3ccccc3c2)NC1=O [OD27, cyc[Nal-Gly-D-Tyr-Cit-Arg]], the IC50 (CXCR4 [2]; Table 4, Orn-Nδ and/or Orn-Nα-modified pentapeptides, read-out: IC50) was 35 ± 7 nM.
